According to US20180318473A1, “DRUGS WITH IMPROVED HYDROPHOBICITY FOR INCORPORATION IN MEDICAL DEVICES” (Abraxis BioScience, LLC, priority 2005, published 2018):

Tested on: MX-1 mammary tumor cells

Benzoyl rapamycin [Compound 23]
IC50: 10 µM
